# Experimental data as given in ChEMBL document CHEMBL3612027, “Substrate-guided optimization of the syringolins yields potent proteasome inhibitors with activity against leukemia cell lines” (Bioorg Med Chem, 2015).
# By UniProt entry, the sequences of proteins in these tests, tags left out. Where a name states a change or a piece, a line headed by the entry shows the natural chain unless it says otherwise.
# UniProt P28074: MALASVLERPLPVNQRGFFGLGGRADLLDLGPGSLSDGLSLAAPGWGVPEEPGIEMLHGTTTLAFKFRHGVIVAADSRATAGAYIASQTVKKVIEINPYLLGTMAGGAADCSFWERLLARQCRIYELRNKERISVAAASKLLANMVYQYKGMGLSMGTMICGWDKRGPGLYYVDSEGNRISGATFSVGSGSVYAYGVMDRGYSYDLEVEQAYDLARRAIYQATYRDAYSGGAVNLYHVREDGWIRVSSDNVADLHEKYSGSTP
# System: MDA-MB-468
# Assay: Cytotoxicity against human MDA-MB-468 cells assessed as cell growth at 10 uM after 48 hrs relative to control
# Assay type: functional
# Details: MDA-MB-468, 48 h, read-out: Activity
# Summary of the method: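 Run at the National Cancer Institute as a single-dose screen across its 60-cell-line cancer panel. Compound was tested at 10 micromolar, and growth was expressed as a percentage of negative-control cultures.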
row,SMILES,growth at 10 µM [%]
1,COC(=O)[C@@H](NC(=O)N[C@H](C(=O)N[C@H]1CCCCNC(=O)/C=C/[C@H](Cc2c[nH]c3ccccc23)NC1=O)C(C)C)C(C)C,-5.14

# Biological target: Proteasome Macropain subunit MB1 (Homo sapiens, UniProt P28074)
# Details: not given
row,SMILES,Kin [s⁻¹]
1,COC(=O)[C@@H](NC(=O)N[C@H](C(=O)N[C@H]1CCCCNC(=O)/C=C/[C@H](Cc2ccccc2)NC1=O)C(C)C)C(C)C,0.000472
2,COC(=O)[C@@H](NC(=O)N[C@@H](Cc1ccccc1)C(=O)N[C@H]1CCCCNC(=O)/C=C/[C@H](C(C)C)NC1=O)C(C)C,0.000598
3,COC(=O)[C@@H](NC(=O)N[C@H](C(=O)N[C@H]1CCCCNC(=O)/C=C/[C@H](Cc2c[nH]c3ccccc23)NC1=O)C(C)C)C(C)C,0.000514
4,COC(=O)[C@@H](NC(=O)N[C@H](C(=O)N[C@H]1CCCCNC(=O)/C=C/[C@H](C(C)C)NC1=O)C(C)C)C(C)C,0.00055
5,COC(=O)[C@@H](NC(=O)N[C@H](C(=O)N[C@H]1CCCCNC(=O)/C=C/[C@H](CC(C)C)NC1=O)C(C)C)C(C)C,0.000613
6,COC(=O)[C@@H](NC(=O)N[C@@H](Cc1ccccc1)C(=O)N[C@H]1CCCCNC(=O)/C=C/[C@H](Cc2c[nH]c3ccccc23)NC1=O)C(C)C,0.000551
7,COC(=O)[C@@H](NC(=O)N[C@H](C(=O)N[C@H]1CCCCNC(=O)/C=C/[C@H](Cc2cccc(C(F)(F)F)c2)NC1=O)C(C)C)C(C)C,0.000472

# Second part, the compound after the results:
row,Kin [s⁻¹],SMILES
1,0.000495,COC(=O)[C@@H](NC(=O)N[C@H](C(=O)N[C@H]1CCCCNC(=O)/C=C/[C@H](Cc2cccc(C)c2)NC1=O)C(C)C)C(C)C
2,0.000489,COC(=O)[C@@H](NC(=O)N[C@H](C(=O)N[C@H]1CCCCNC(=O)/C=C/[C@H](Cc2cccc(Cl)c2)NC1=O)C(C)C)C(C)C
3,0.000479,COC(=O)[C@@H](NC(=O)N[C@H](C(=O)N[C@H]1CCCCNC(=O)/C=C/[C@H](Cc2ccccc2F)NC1=O)C(C)C)C(C)C
4,0.0005,COC(=O)[C@@H](NC(=O)N[C@H](C(=O)N[C@H]1CCCCNC(=O)/C=C/[C@H](Cc2ccc(C)cc2)NC1=O)C(C)C)C(C)C
5,0.000516,COC(=O)[C@@H](NC(=O)N[C@H](C(=O)N[C@H]1CCCCNC(=O)/C=C/[C@H](Cc2ccccc2Cl)NC1=O)C(C)C)C(C)C
6,0.000499,COC(=O)[C@@H](NC(=O)N[C@H](C(=O)N[C@H]1CCCCNC(=O)/C=C/[C@H](Cc2ccc(Cl)cc2)NC1=O)C(C)C)C(C)C
